Columns and labels:
[1] = tested on: MCF7-3.23 cells; assay: Clonal survival, BRCA1 silenced MCF7-3.23 cells; format: cell-based, human; conditions: MCF7-3.23, continuous exposure 12-14 days
[2] = tested on: Fancd2−/−, Fanca−/−, Fancc−/− and Fanca−/−c−/− fibroblasts; assay: Clonogenic survival, Fanconi anaemia mouse fibroblasts; conditions: continuous exposure 12-14 days
[3] = target: PARP-1 (Homo sapiens, UniProt P09874); assay: PARP-1 enzyme activity inhibition; format: biochemical; conditions: PARP-1 and PARP-2, compared with KU0058684 and KU0058948
[4] = tested on: MCF7-scrambled cells; assay: Clonal survival, BRCA1 wild-type MCF7-scrambled cells; format: cell-based, human; conditions: continuous exposure 12-14 days
[5] = tested on: wild-type ES cells; assay: Rad51 focus formation, wild-type ES cells; conditions: 48 hours
[6] = tested on: Brca2 deficient ES cells; assay: Clonogenic assay, continuous exposure, Brca2 deficient ES cells
[7] = tested on: Brca1 deficient ES cells; assay: Clonogenic assay, continuous exposure, Brca1 deficient ES cells

Protein sequences, listed by entry. Tags and fused reporters are not part of them.
UniProt P09874, whole entry: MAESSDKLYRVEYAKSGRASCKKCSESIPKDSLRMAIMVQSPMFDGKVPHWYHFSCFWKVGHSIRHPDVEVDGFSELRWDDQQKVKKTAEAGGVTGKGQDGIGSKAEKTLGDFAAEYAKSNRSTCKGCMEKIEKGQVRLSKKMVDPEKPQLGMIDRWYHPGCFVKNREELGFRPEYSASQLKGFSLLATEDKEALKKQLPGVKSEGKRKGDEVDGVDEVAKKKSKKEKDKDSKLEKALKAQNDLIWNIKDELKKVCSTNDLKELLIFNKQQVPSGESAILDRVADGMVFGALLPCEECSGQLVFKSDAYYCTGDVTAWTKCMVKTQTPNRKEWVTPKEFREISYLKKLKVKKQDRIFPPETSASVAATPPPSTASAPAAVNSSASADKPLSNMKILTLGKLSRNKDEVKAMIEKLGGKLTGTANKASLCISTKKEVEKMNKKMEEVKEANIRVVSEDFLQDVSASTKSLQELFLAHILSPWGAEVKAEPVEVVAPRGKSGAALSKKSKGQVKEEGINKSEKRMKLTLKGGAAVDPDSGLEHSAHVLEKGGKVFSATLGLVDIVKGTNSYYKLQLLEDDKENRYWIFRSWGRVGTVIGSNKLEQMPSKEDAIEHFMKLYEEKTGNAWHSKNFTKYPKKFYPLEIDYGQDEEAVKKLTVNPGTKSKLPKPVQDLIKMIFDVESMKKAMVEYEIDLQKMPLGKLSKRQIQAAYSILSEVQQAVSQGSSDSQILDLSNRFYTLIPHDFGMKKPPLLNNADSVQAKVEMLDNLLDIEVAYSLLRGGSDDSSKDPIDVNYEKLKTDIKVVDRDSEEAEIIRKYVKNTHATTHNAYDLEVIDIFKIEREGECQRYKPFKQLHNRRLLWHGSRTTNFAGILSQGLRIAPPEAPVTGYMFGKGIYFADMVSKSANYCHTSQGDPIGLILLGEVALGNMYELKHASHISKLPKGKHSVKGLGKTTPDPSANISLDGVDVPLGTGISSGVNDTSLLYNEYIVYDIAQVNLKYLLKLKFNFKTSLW

O=c1[nH]nc(Cc2ccccc2)c2ccccc12
sensitivity (clonal survival) [1]: Neither MCF7-scrambled nor MCF7-3.23 cells displayed significant sensitivity | sensitivity of FA gene deficient fibroblasts compared to wild-type cells [2]: no difference in sensitivity | times less effective in the inhibition of these enzymes [3]: 250 × | sensitivity (clonal survival) [4]: Neither MCF7-scrambled nor MCF7-3.23 cells displayed significant sensitivity | Rad51 foci formation [5]: did not induce Rad51 focus formation | sensitivity of Brca2 deficient cells compared to otherwise isogenic cells [6]: no selective effect | sensitivity of Brca1 deficient cells compared to otherwise isogenic cells [7]: no selective effect

Reference: US8143241B2, “DNA damage repair inhibitors for treatment of cancer” (Kudos Pharmaceuticals Limited, priority 2003, dated 2012)
